Results published in paper PMC3306125 (Journal of Medicinal Chemistry, 2012).

How the values were obtained:
[1] = test system: acetylated histones H4 and H3; assay: Western blot of histone H4 and H3 acetylation in DU-145 cells; format: cell-based, human; settings: DU-145, 24 h; SAHA 2.5, 5 μM; DAU 0.1, 0.5 μM; 7 0.5, 1 μM; 12b 2.5, 5 μM
p21waf1 = assay: Western blot of p21waf1 expression in DU-145 cells; format: cell-based, human; settings: DU-145, 24 h; SAHA 2.5, 5 μM; DAU 0.1, 0.5 μM; 7 0.5, 1 μM; 12b 2.5, 5 μM

SMILES: O=C(CCCCCCC(=O)Nc1ccccc1)NO [SAHA, suberoylanilide hydroxamic acid, reference compound]
- histone H4 acetylation (immunoblot) [1]: strong histone H4 acetylation
- p21waf1 expression (immunoblot) (p21waf1): marked upregulation of p21
